Source: patent US9005651B2, “Sustained drug delivery system” (Tohoku University, priority 2009, dated 2015)

Test: Implantation of capsule on the sclera of rabbit's eye (fluorescence of hydatoid, fundus camera, tissue)
Format: in vivo
Details: 3 days after implantation
Description: A capsule (the collagen particle concentration of its porous PEG sheet: 500 mg/ml) packed with a PEG pellet of FA was implanted on the sclera of the eye of rabbits. One eye of each rabbit was used as a non-implantation control. The conjunctiva was incised 5 mm and the capsule was implanted therethrough into 2 to 15 mm of the corneal limbus. The capsule was fixed by suture. The conjunctiva was finally sutured to terminate the implantation. The hydatoid (100 μl) was collected every other week and the fluorescence intensity thereof was measured using a fluorescence plate reader. Using a fluorescence camera, the fluorochrome in the device implanted on the sclera and the distribution of the pigment slowly released were photographed. […] In FIG. 22, the fluorescences of the cell nucleus (blue fluorescence) and the model drug (green fluorescence) are observed. In FIG. 22, the mark * represents the position in which the PEG capsule was present. […] When the drug passes through RP, the drug is fed to RE. Because RP has a high barrier function, the pigment stops here and is concentrated.

With FITC-Dextran 40 kDa [FD40] the tissue fluorescence distribution was “strong fluorescence was observed in the sclera (SC) and the subretina (RP)”.
